Conditions: mouse, in vivo, iv
Method: Blood samples were obtained 0.5 h prior to dosing and at 0.08, 0.17, 0.33, 0.67, 1.5, 4, 8, 12, 24 hours after drug administration (n=4 per time point).
Blood samples were obtained at 0.5 h prior to the dosing and at 0.08, 0.17, 0.33, 0.67, 1.5, 4, 8, 12, and 24 h after drug administration.

For `O=C(Nc1ccc([N+](=O)[O-])cc1Cl)c1cc(Cl)ccc1O` [NIC, Niclosamide], the “CL (clearance = dose/AUC-inf)” value was 0.89 ± 0.45 L/h (per kg BW).

From patent publication US20190083638A1, “NICLOSAMIDE-CONJUGATED POLYPEPTIDE NANOPARTICLES” (priority 2017, published 2019)
